This experiment deals with Opto-p53 p53CT localizer (CIBN-p53CT(98-393)-mNeonGreen-T7) (UniProt P04637).

The results in this text go back to paper PMC12706508.

As to “Opto-p53 p53NT actuator (miRFP703-p53NT(1-97)-hCRY2-NLS) (from UniProt P04637 1-97)”, the fold increase of the p53 transcription reporter (mScarlet-I-3xNLS fluorescence) in HCT116 reporter cells co-expressing both fragments, blue light 0-24 hours stood at 4 fold.
